Experimental data as given in paper PMC6003237 (Bioorganic & medicinal chemistry, 2017).

System: mice
Details: mouse, in vivo, iv

CC[C@H]1CN2CCc3cc(OC)c(OC)cc3[C@@H]2C[C@@H]1C[C@@H]1c2cc(OC)c(OC)cc2CCN1C(=S)Nc1ccccc1 [compound 26]
Effects/observations at higher doses: No remarkable behavior, no sign of toxicity. Mice remained alive
